From US11541059B2

Chains of the proteins cited; added tags and fusions are not shown.
UniProt P48736, whole entry: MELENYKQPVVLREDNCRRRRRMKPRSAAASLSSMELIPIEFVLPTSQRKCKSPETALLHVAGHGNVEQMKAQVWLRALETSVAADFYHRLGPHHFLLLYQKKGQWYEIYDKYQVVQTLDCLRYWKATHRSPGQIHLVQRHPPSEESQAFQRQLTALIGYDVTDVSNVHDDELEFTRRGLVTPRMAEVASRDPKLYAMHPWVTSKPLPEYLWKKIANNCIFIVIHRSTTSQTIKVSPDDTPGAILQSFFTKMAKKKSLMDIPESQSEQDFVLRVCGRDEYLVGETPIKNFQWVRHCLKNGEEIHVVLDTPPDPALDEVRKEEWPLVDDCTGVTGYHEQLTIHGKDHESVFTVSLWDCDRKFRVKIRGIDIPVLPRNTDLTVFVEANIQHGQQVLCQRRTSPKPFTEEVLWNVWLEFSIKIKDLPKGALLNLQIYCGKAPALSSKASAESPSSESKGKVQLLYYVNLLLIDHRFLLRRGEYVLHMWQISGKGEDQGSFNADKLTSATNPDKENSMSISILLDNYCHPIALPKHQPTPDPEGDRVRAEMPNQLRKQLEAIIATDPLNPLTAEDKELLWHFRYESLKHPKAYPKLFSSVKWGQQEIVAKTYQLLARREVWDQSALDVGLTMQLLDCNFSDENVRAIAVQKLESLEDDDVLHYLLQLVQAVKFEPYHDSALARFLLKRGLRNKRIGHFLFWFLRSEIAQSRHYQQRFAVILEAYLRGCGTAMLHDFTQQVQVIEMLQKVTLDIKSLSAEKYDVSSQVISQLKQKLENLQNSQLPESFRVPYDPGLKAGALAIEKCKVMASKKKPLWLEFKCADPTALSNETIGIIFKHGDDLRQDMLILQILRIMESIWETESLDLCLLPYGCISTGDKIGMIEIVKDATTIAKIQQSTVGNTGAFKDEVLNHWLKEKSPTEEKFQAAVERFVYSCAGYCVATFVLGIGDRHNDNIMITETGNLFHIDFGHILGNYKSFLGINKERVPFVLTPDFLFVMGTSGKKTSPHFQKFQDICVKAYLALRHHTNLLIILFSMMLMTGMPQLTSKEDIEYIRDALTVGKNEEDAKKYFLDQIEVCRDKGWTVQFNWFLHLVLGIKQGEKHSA

Molecular target: PI3K γ (Homo sapiens (Human), UniProt P48736)
Experiment: PI3-Kinase Promega ADP-Glo Max assay
Settings: ratio of biochemical IC50s

PI3K δ/PI3K γ IC50 (selectivity): X (X = 10 to <50)
SMILES: Cc1ccnc2c(C(=O)N[C@@H](C)c3cc4cccc(C#Cc5cnn(C)c5)c4c(=O)n3-c3ccccc3)c(N)nn12
